{
  "source": "patent US8653023B1",
  "about": "“Dual beneficial effect of dopamine enhancing and neuroprotective actions of PKC delta inhibitors for treatment of Parkinson's disease” (Iowa State University Research Foundation, Inc., priority 2006, dated 2014)",
  "tested_on": "tyrosine hydroxylase (TH)",
  "assay": "TH activity (DOPA levels after NSD-1015) in PC12 cells",
  "type": "cell-based",
  "details": "10 μM rottlerin 3 hr, 2 mM NSD-1015",
  "procedure": "PC12 cells, differentiated N27 dopaminergic cells and primary mesencephalic neurons were exposed to 1-10 μM rottlerin for the duration of the experiment. DMSO (0.01%) was used as vehicle control. PKCδ-DN- and Lac Z-expressing N27 cells were only treated with 0.01% DMSO. […] Untreated or vehicle treated cells were used as control samples.",
  "data": [
    {"molecule": "CC(=O)c1c(O)c(C)c(O)c(Cc2c(O)c3c(c(C(=O)/C=C/c4ccccc4)c2O)OC(C)(C)C=C3)c1O", "note": "[rottlerin]", "values": [
      {"measurement": "TH activity", "result": "2067±43.83", "unit": "pg DOPA/10^6 cells/hr"}
    ]}
  ]
}
